From paper PMC8480901 (PLoS ONE, 2021)

System: J774.2 mouse macrophages
Test: LPS-induced cytokine and chemokine levels in J774.2 mouse macrophage cell supernatant (ELISA)
Format: cell-based

Question: How did the TNF-α % reduction (0.001 µM, J774.2 supernatant) turn out when `C[C@@H]1C[C@H]2[C@@H]3CCC4=CC(=O)C=C[C@]4(C)[C@@]3(F)[C@@H](O)C[C@]2(C)[C@@]1(O)C(=O)CO` [Dexamethasone] was run?
Answer: The TNF-α % reduction was 1.59%.

Question: What about the CXCL1 % reduction (J774.2 cells, compound 0.03 µM) of the same compound?
Answer: The CXCL1 % reduction was -159%.
